Values quoted from earlier work in PubChem BioAssay AID977611.

Key:
Test in all cases: PubChem AID 977611
immunoglobulin = details: PDB protein-ligand complexes, literature Kd; protein: immunoglobulin; PDB entry 2PCP
[1] = target: Tyrosine-protein kinase SYK; details: PDB protein-ligand complexes, literature Kd, protein: Tyrosine-protein kinase SYK
Pantothenate kinase = details: PDB protein-ligand complexes, literature Kd; protein: Pantothenate kinase; PDB entry 2EWS
[2] = target: potassium-transporting atpase b chain; details: PDB protein-ligand complexes, literature Kd; protein: potassium-transporting atpase b chain; PDB entry 2A29
[3] = target: Mitogen-activated protein kinase 1; details: PDB protein-ligand complexes, literature Kd; protein: Mitogen-activated protein kinase 1; PDB entry 3TEI
[4] = target: Cellular retinoic acid-binding protein 2; details: PDB protein-ligand complexes, literature Kd; protein: Cellular retinoic acid-binding protein 2; PDB entry 2G79
dihydrofolate reductase = details: PDB protein-ligand complexes, literature Kd; protein: dihydrofolate reductase; PDB entry 2D0K
galectin-2 = details: PDB protein-ligand complexes, literature Kd; protein: galectin-2; PDB entry 1ULG
[5] = target: 3,4 PCD from acinetobacter SP. ADP1 MUTANT R457S; details: PDB protein-ligand complexes, literature Kd; protein: 3,4 PCD from acinetobacter SP. ADP1 MUTANT R457S; PDB entry 2BUV
[6] = target: protocatechuate 3,4-dioxygenase; details: PDB protein-ligand complexes, literature Kd; protein: protocatechuate 3,4-dioxygenase; PDB entry 1YKP
citrate synthase = details: PDB protein-ligand complexes, literature Kd; protein: citrate synthase; PDB entry 4CTS
[7] = target: 2,2-dialkylglycine decarboxylase; details: PDB protein-ligand complexes, literature Kd; protein: 2,2-dialkylglycine decarboxylase; PDB entry 1ZC9
[8] = target: Transitional endoplasmic reticulum ATPase, R155H mutant; details: PDB protein-ligand complexes, literature Kd; protein: Transitional endoplasmic reticulum ATPase, R155H mutant; PDB entry 3HU3
[9] = target: dna polymerase iii, delta subunit; details: PDB protein-ligand complexes, literature Kd; protein: dna polymerase iii, delta subunit; PDB entry 1XXH
[10] = target: Transitional endoplasmic reticulum ATPase, R86A mutant; details: PDB protein-ligand complexes, literature Kd; protein: Transitional endoplasmic reticulum ATPase, R86A mutant; PDB entry 3HU2
[11] = target: Transitional endoplasmic reticulum ATPase, R95G mutant; details: PDB protein-ligand complexes, literature Kd; protein: Transitional endoplasmic reticulum ATPase, R95G mutant; PDB entry 3HU1
[12] = target: dna polymerase iii, gamma subunit; details: PDB protein-ligand complexes, literature Kd; protein: dna polymerase iii, gamma subunit; PDB entry 1NJF
streptavidin = details: PDB protein-ligand complexes, literature Kd; protein: streptavidin; PDB entry 2IZL
kes1 protein = details: PDB protein-ligand complexes, literature Kd; protein: kes1 protein; PDB entry 1ZHY
[13] = target: apoptosis regulator bcl-x; details: PDB protein-ligand complexes, literature Kd; protein: apoptosis regulator bcl-x; PDB entry 1YSG
[14] = target: sarcoplasmic/endoplasmic reticulum calcium; details: PDB protein-ligand complexes, literature Kd; protein: sarcoplasmic/endoplasmic reticulum calcium; PDB entry 2AGV

## c1ccc(C2(N3CCCCC3)CCCCC2)cc1
immunoglobulin
  Kd: 0.002 µM

## Nc1ncnc2c1ncn2[C@@H]1O[C@H](COP(=O)(O)OP(=O)(O)NP(=O)(O)O)[C@@H](O)[C@H]1O
[1]; PDB entry 4FL1
  Kd: 520 µM
[1]; PDB entry 4FL2
  Kd: 220 µM
[1]; PDB entry 4FL3
  Kd: 150 µM
Pantothenate kinase
  Kd: 0.24 µM
[2]
  Kd: 1400 µM
[3]
  Kd: 0.5 µM

## CC1=C(/C=C/C(C)=C/C=C/C(C)=C/C=O)C(C)(C)CCC1
[4]
  Kd: 0.12 µM

## Nc1nc2ncc(CNc3ccc(C(=O)N[C@@H](CCC(=O)O)C(=O)O)cc3)nc2c(=O)[nH]1
Dihydrofolate reductase
  Kd: 9.51 µM

## CC(=O)N[C@@H]1[C@@H](O[C@@H]2O[C@H](CO)[C@H](O)[C@H](O)[C@H]2O)[C@@H](O)[C@H](CO)O[C@H]1O
galectin-2
  Kd: 62.2 µM

## O=C(O)c1ccc(O)c(O)c1
[5]
  Kd: 100 µM
[6]
  Kd: 1100 µM

## O=C(O)CC(=O)C(=O)O
Citrate synthase
  Kd: < 10 µM

## Cc1ncc(COP(=O)(O)O)c(CN)c1O
[7]
  Kd: 600 µM

## Nc1ncnc2c1ncn2[C@@H]1O[C@H](COP(=O)(O)OP(=O)(O)OP(O)(O)=S)[C@@H](O)[C@H]1O
[8]
  Kd: 0.13 µM
[9]
  Kd: 0.78 µM
[10]
  Kd: 0.06 µM
[11]
  Kd: 0.13 µM
[12]
  Kd: 1.03 µM

## NC1=N[C@H]2[C@H](CS[C@H]2CCCCC(=O)O)N1
streptavidin
  Kd: 1 µM

## CC(C)CCC[C@@H](C)[C@H]1CC[C@H]2[C@@H]3CC=C4C[C@@H](O)CC[C@]4(C)[C@H]3CC[C@]12C
kes1 protein
  Kd: 0.3 µM

## O=C(O)c1ccc(-c2ccc(F)cc2)cc1
[13]
  Kd: 300 µM

## CC(C)(C)c1cc(O)c(C(C)(C)C)cc1O
[14]
  Kd: 0.02 µM
